Common to all, as to assay: Non-anchorage-dependent cell growth inhibition, spheroid 3D cell culture (CellTiter Glo 2.0)
For assay [1], the system named is human G12C mutant KRAS-positive pancreatic cancer line MIA PaCa-2. Conditions: read-out: G12C (MIA PaCa-2) IC50; MIA PaCa-2, 3D spheroid, 6 days. The source says:
(§1) Test Example 2: Evaluation of non-anchorage-dependent cell growth inhibitory effect on human G12V mutant KRAS-positive pancreatic cancer line PA-TU-8902, human G12D mutant KRAS-positive pancreatic cancer line PK-59, human G12C mutant KRAS-positive pancreatic cancer line MIA PaCa-2, human G12C mutant KRAS-positive lung cancer line NCI-H358, human G12D mutant KRAS-positive colorectal cancer line GP2d, human G13D mutant KRAS-positive colorectal cancer line LoVo, or human wild-type KRAS gene amplification-positive gastric cancer line MKN1 The non-anchorage-dependent cell growth inhibitory effect of test compounds was evaluated by spheroid 3D cell culture.
(§2) PA-TU-8902 cells or GP2d cells (ECACC, 95090714), Pk-59 cells (RIKEN BRC, RCB1901), MIA PaCa-2 cells (RIKEN BRC, RCB2094), NCI-H358 cells (ATCC, CRL-5807), LoVo cells (ATCC, CCL-229), or MKN1 cells (JCRB, JCRB0252) were seeded on low-cell-adhesive round bottom 384-well plates (Prime Surface: from Sumitomo Bakelite) at 36 µL/well to give 5 × 10^2 cells per well, and the PA-TU-8902 cells were cultured under the same conditions as in Test Example 1. The GP2d cells were cultured using DMEM medium containing 10% fetal bovine serum in the presence of 5% CO2 at 37°C. The PK-59 cells, MIA PaCa-2 cells, LoVo cells, NCI-H358 cells, or MKN1 cells were cultured using RPMI-1640 medium (from Sigma-Aldrich) containing 10% fetal bovine serum in the presence of 5% CO2 at 37°C.
(§3) The next day, the test compounds (10 points having final concentrations in the range of 10 µM to 0.03 nM) and DMSO, which was the solvent for the test compounds, as a negative control were diluted 100-fold with a fresh medium and were added at 4 µL to each well containing the PA-TU-8902 cells, PK-59 cells, MIA PaCa-2 cells, LoVo cells, NCI-H358 cells, or MKN1 cells. After culturing in the presence of 5% CO2 at 37°C for 6 days, CellTiter Glo 2.0 (from Promega) was added at 20 µL per well. After stirring with a plate mixer at room temperature for 1 hour, the luminescent signals were measured with ARVO X3 (from PerkinElmer).
(§4) With the signaling value in treatment with DMSO taken as a survival rate of 100% and with the signaling value in the medium alone without cells taken as a survival rate of 0%, the 50% inhibitory concentration (IC50) was calculated by Sigmoid-Emax model nonlinear regression analysis.

Assay [2] deals with human G12D mutant KRAS-positive pancreatic cancer line PK-59. As to conditions: read-out: G12D (PK-59) IC50; PK-59, 3D spheroid, 6 days.
Text: as §1, §2, §3, §4

Assay [3] deals with human G12V mutant KRAS-positive pancreatic cancer line PA-TU-8902. As to conditions: read-out: G12V (PA-TU-8902) IC50; PA-TU-8902, 3D spheroid, 6 days.
Text: as §1, §2, §3, §4

Assay [4] has as its system human G13D mutant KRAS-positive colorectal cancer line LoVo. As to conditions: read-out: G13D (LoVo) IC50, 3D spheroid, 6 days.
Text: as §1, §2, §3, §4

`CN(C)CC(C)(C)COc1nc(N2CC[C@H]2C(N)=O)c2cc(C3CC3)c(-c3cc(O)cc4ccc(F)cc34)c(OCc3ccc(C(=O)N4CCC5(CC4)CN(c4cc6c(cc4F)c(N4CCC(=O)NC4=O)nn6C)CCO5)cc3)c2n1` (single isomer, unassigned): the IC50 (as a rule, the point on the concentration scale where inhibition reaches its midpoint) came out at 2.9 nM in assay [1], 16 nM in assay [2], 9.1 nM in assay [3] and 70 nM in assay [4].

The values above are taken from EP4847499A1, “HETEROCYCLIC COMPOUND FOR INDUCING DEGRADATION OF KRAS PROTEIN” (dated 2026).
